Measurements published in EP2330125A2.

Experiments:
calcitonin receptor = assay: CT RBA
[1] = target: T1, CGRP receptor (Homo sapiens (Human)), Q16602; assay: CGRP RBA
T1 chain 1: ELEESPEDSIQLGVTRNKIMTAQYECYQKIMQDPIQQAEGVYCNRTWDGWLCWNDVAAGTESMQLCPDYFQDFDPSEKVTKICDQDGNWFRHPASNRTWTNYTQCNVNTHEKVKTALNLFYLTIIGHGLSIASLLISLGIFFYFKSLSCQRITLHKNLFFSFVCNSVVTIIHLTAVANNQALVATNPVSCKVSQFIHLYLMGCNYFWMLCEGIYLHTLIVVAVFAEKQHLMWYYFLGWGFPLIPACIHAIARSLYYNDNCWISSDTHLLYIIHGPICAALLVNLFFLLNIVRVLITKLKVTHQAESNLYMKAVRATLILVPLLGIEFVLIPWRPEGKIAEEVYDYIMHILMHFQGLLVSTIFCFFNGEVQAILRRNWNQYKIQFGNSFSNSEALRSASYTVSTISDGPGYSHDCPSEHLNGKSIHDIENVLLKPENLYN
T1 chain 2: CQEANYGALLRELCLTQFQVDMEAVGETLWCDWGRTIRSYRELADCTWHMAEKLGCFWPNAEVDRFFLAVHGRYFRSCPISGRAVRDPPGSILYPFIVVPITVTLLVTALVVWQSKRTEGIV

amylin receptor (rat) = assay: amylin RBA

IC50 (calcitonin receptor): 0.063 nM | IC50 [1]: 81 nM | IC50 (amylin receptor (rat)): 0.04 nM
Binder: SSSLPQTKCNTATCVLGRLSQELHRLQTYPRTNTGSNTY (modifications not checked) [[Ser117,dLeu119]leptin(116-122)-Amylin(1-7)-[11,18Arg]sCT(8-27)-Amylin(33-37)]
